From ChEMBL document CHEMBL2163296 (J Med Chem, 2012)

Amino acid sequences for entries named in this document (tags omitted).
UniProt P08908, whole entry: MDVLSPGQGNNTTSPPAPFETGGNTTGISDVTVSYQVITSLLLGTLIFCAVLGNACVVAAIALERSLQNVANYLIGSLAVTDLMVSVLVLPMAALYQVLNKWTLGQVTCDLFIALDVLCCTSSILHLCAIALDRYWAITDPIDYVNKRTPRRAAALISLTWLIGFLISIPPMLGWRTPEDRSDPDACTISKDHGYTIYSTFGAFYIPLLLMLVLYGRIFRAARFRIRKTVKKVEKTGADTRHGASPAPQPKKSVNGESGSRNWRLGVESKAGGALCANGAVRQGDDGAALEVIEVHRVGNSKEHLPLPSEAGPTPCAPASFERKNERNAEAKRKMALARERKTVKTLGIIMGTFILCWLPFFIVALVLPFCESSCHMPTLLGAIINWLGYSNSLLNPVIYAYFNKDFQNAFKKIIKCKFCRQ

Target: 5-hydroxytryptamine receptor 1A (Homo sapiens, UniProt P08908)

Ki: 1180 nM
Structure (SMILES): CNC(=O)c1cc(Oc2ccc(NC(=O)Nc3ccc(Cl)c(C(F)(F)F)c3)cc2)ccn1 [SORAFENIB]
